{"source": "paper PMC1521118", "about": "(Environmental Health Perspectives, 1993)", "system": "Salmonella typhimurium TA98", "conditions": "without (-) S9; 100 ng/plate", "data": [{"smiles": "Nc1c2ncn(C(c3ccccc3)c3ccccc3)c2nc[n+]1[O-]", "note": "[9-Benzhydryladenine-1-N-oxide]", "values": [{"measurement": "histidine revertants/plate, TA98", "value": "19 +4 histidine revertants/plate"}]}]}
